Measured affinities in a library of Ab-14 light chain variants

From the AlphaSeq antibody data of Li et al. 2023 (doi:10.1038/s41467-023-39022-2), copy in the FLAb collection.

The target is the same throughout: PDVDLGDISGINAS, from the HR2 region of SARS-CoV-2 spike.

Each scFv is VH, a (GGGGS)3 linker, VL, as in the parent Ab-14, and differs from it in the CDRs of the light chain only.
VH: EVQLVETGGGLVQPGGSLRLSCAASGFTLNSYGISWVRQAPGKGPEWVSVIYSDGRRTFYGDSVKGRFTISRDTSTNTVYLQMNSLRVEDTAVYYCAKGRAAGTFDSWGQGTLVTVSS
VL: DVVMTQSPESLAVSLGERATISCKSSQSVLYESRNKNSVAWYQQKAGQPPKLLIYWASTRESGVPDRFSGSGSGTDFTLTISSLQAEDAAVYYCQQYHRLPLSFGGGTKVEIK

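The starting antibody came from a phage panning campaign against this peptide. This is the validation round: designs drawn from the data on random variants, tested in the same kind of assay. Their group label is 14L_En_HC (En: ensemble of fine-tuned language models; HC: hill climbing; a sequence that several methods proposed may carry one label only). Affinity was read by AlphaSeq, a pooled yeast mating assay with surface-displayed partners. The frequency of each diploid, read from paired DNA barcodes, reflects how well the two displayed proteins bind. Scores were corrected for input abundance and mapped to Kd with protein pairs of known affinity run in the same pool. Mating was done six times.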

Each variant is given by its three light chain CDRs, as the data file delimits them; those of the parent are KSSQSVLYESRNKNSVA, WASTRES, QQYHRLPLS. Affinities are written as log10 Kd with Kd in nM; a lower number is a better binder. A mean of the replicates is given; it leaves out those without a signal. A pair that was not seen in that replicate is written "ND"; this usually means weak binding, but a binder can also be missed. Nonspecific signal, from three strains lacking the peptide, appeared in 4% of pairings of all light chain designs, centred on 2.64 (5% of these signals below 1.59); values are not corrected for it. The control count says in how many pairings with the empty strains this scFv gave a signal, with their mean in brackets. A sequence measured in both rounds can read differently, since the two assays cover different ranges. Of ten entries with the parent sequence, four were seen in most replicates (averages 0.34 to 2.37), three in one and three in none, so single entries are noisy. The authors averaged sequences with at least three values out of six and counted those with two or fewer as poor binders.

| # | CDR-L1 | CDR-L2 | CDR-L3 | replicates, log10 nM | mean log10 Kd (nM) | signal with controls |
|---|---|---|---|---|---|---|
| 1 | KLGDMVHTESRNHNSIA | DMRTRES | QQYYRLPLS | -0.14 / -0.30 / -0.37 / -0.34 / -0.29 / -0.34 | -0.30 | 4 of 18 (2.26) |
| 2 | ILSQSVLMGMHTKNSVA | QASMRFN | QQYDRLPLM | 1.11 / 1.61 / 1.58 / 1.81 / 0.76 / 1.46 | 1.39 | 0 of 18 |
| 3 | KLYQMTGIESHAKNSLA | DANRREE | QQYHRLPLS | -0.30 / -0.52 / -0.08 / -0.52 / -0.46 / -0.35 | -0.37 | 0 of 18 |
| 4 | MLSDLVKQGLRNTNSVA | DNSTRGS | QQYDRLPLS | 1.20 / 2.06 / 1.49 / 1.33 / 2.29 / 2.02 | 1.73 | 1 of 18 (2.35) |
| 5 | TLGDVTRMESNKVNSIA | DMSNRAD | QQYHRLPLS | 0.72 / 0.63 / 0.36 / 0.28 / 0.36 / 0.63 | 0.50 | 0 of 18 |
| 6 | KIYMMTGYASRNADSIA | DNSTRGR | QQYHRLPLS | 1.98 / ND / 2.51 / ND / 2.18 / ND | 2.22 | 0 of 18 |
| 7 | KISMLTLYESVNKNNVA | EMSTRPS | QSYHRLPLS | 0.20 / 0.03 / -0.09 / 0.21 / -0.09 / -0.07 | 0.03 | 1 of 18 (3.07) |
| 8 | HMSQVTMYGMWMRNSVA | QTSTREQ | QQYDRLPLS | 1.33 / 1.20 / 1.18 / 0.95 / 1.03 / 1.44 | 1.19 | 1 of 18 (3.94) |
| 9 | TIGQMFNGESRIRNSVA | QASTRES | QSYDRLPLA | 0.41 / 0.55 / 0.63 / 0.58 / 0.68 / 0.81 | 0.61 | 1 of 18 (3.02) |
| 10 | ALSQSMDMTSRNKNSVA | DLETREN | QQYHRLPLS | 0.39 / 0.06 / -0.09 / 0.11 / 0.02 / 0.30 | 0.13 | 2 of 18 (2.01) |
| 11 | KLRQLTVIESFNKNNVA | EMSTRES | QSYDRLPLS | 1.34 / 0.87 / 1.47 / 0.56 / 1.19 / 1.17 | 1.10 | 1 of 18 (1.60) |
| 12 | KIMQSLNYEQFNVSNVA | GQETREY | QSYHRLPLS | 1.29 / 1.79 / 1.27 / 3.08 / 4.20 / 1.42 | 2.17 | 1 of 18 (2.03) |
| 13 | KLSQVTHSESRNKNSIA | EMVTREQ | QQYDRLPLS | 0.28 / 1.22 / 0.50 / 1.17 / 1.00 / 1.22 | 0.90 | 1 of 18 (2.93) |
| 14 | TLGDVTRMESNKKNSIA | DMSNRES | QQYHRLPLS | -0.77 / -0.66 / -0.20 / -1.14 / -0.11 / -1.17 | -0.67 | 0 of 18 |
| 15 | KIAATVLYESGAANSVA | QNSTRES | QQYHRLPLS | 1.66 / 1.93 / 2.07 / 1.59 / 1.32 / 1.47 | 1.67 | 0 of 18 |
| 16 | IFSQGVMVGWLTRNSVA | NSETRES | QQYDRLPLS | 0.91 / 0.52 / 0.70 / 0.32 / 0.66 / 0.69 | 0.63 | 3 of 18 (3.00) |
| 17 | SISMSMAFLSRNKNSVA | ENSTRES | QQYHRLPLT | 1.18 / 1.22 / 1.39 / 1.21 / 1.06 / 0.94 | 1.17 | 4 of 18 (2.72) |
| 18 | KLSQVTRSESRNKNSIA | EMVTREV | QQYDRLPLS | 1.47 / 0.85 / 0.81 / 0.34 / 0.81 / 0.77 | 0.84 | 0 of 18 |
| 19 | MFSQGVMVGWLTRNSVA | NSSTREN | QQYDRLPLS | 0.98 / 0.82 / 0.81 / 0.82 / 0.89 / 1.13 | 0.91 | 1 of 18 (2.56) |
| 20 | IISQSVLGGYHNRNSVA | QTSERGQ | QQYDRLPLS | 0.65 / 0.73 / 0.46 / 0.41 / 0.24 / 0.61 | 0.52 | 1 of 18 (2.91) |
| 21 | ILSQFMLTAGNKHSSVA | QANNRED | QQYHRLPLS | 2.11 / 0.74 / 1.51 / 1.78 / 1.25 / 2.05 | 1.57 | 0 of 18 |
| 22 | KLRELIHVESKQKNNVA | DNSTRES | QDYHRLPLS | 1.94 / 2.30 / 1.75 / 1.53 / 1.39 / 1.88 | 1.80 | 0 of 18 |
| 23 | MLSDTVMQGSYYRNSVA | QESTRAE | QQYHHLPLS | 1.02 / 1.04 / 0.78 / 0.53 / 0.45 / 0.99 | 0.80 | 1 of 18 (4.54) |
| 24 | MAYGGDMMESVARNSVA | NAETRAD | QDYHRLPLS | 0.21 / 0.09 / 0.30 / 0.26 / -0.14 / 0.42 | 0.19 | 2 of 18 (3.35) |
| 25 | SLMQVGGYESNAHNSIA | DLRTRED | QQYHRLPLS | 1.73 / 1.32 / 1.32 / 0.80 / 0.63 / 0.90 | 1.12 | 0 of 18 |
| 26 | HISMMVGTKGYNKQSVA | NAETRSD | QQYHRLPLS | 0.35 / 0.14 / 0.07 / 0.25 / 0.04 / 0.23 | 0.18 | 2 of 18 (3.22) |
| 27 | KLGQMTAIESSNLNSVA | QMDTRES | QQYHRLPLS | 1.34 / 0.43 / 0.33 / 0.34 / 0.94 / 0.93 | 0.72 | 0 of 18 |
| 28 | KLSQSVRMESFNKNNVA | ENSTREA | QDYHRLPLS | 2.04 / 1.84 / 2.14 / 2.38 / 1.99 / 2.04 | 2.07 | 3 of 18 (3.05) |
| 29 | KISMLYRYESQEKNSIA | EMSTREE | QSYHRLPLS | ND / ND / 1.44 / ND / ND / ND | 1.44 | 1 of 18 (1.33) |
| 30 | SLMQVGGYESNDKNSIA | DLRTRES | QQYHRLPLS | 0.97 / 0.87 / 1.08 / 0.75 / 1.09 / 0.97 | 0.95 | 1 of 18 (2.58) |
| 31 | KISQMVTYESTWHGAIA | QTSEREQ | QQYHRLPFS | 0.86 / 0.78 / 0.39 / 0.78 / 0.67 / 0.47 | 0.66 | 1 of 18 (1.66) |
| 32 | MIAQGLRGVGRNKNSVA | NAQTRLS | QHYHRLPLS | 1.31 / 1.77 / 0.87 / 1.06 / 1.00 / 1.03 | 1.17 | 1 of 18 (2.66) |
| 33 | HISYSMAHLSKNKNSVA | NQQTRET | QQYHRLPLS | 1.12 / 0.97 / 1.34 / 0.87 / 1.06 / 1.31 | 1.11 | 0 of 18 |
| 34 | MISDLTMHGSRNKNSVA | DSSTRGS | QQYHRLPLS | 0.46 / 0.79 / -0.11 / 0.49 / 0.64 / 0.40 | 0.45 | 0 of 18 |
| 35 | MISQMFLGESRNRNSVA | QASTRES | QSYDRLPLS | 1.28 / 1.96 / 1.25 / 1.44 / 1.49 / 1.53 | 1.49 | 1 of 18 (3.61) |
| 36 | KISQMAWYESTWWNAIA | QTSTREE | QQYHRLPLS | 1.03 / 1.11 / 0.77 / 0.58 / 0.56 / 0.50 | 0.76 | 0 of 18 |

Repeated from above, the 3 best binders with a signal in all replicates:

{"CDR-L1": "TLGDVTRMESNKKNSIA", "CDR-L2": "DMSNRES", "CDR-L3": "QQYHRLPLS", "replicates, log10 nM": "-0.77 / -0.66 / -0.20 / -1.14 / -0.11 / -1.17", "mean log10 Kd (nM)": "-0.67", "signal with controls": "0 of 18"}
{"CDR-L1": "KLYQMTGIESHAKNSLA", "CDR-L2": "DANRREE", "CDR-L3": "QQYHRLPLS", "replicates, log10 nM": "-0.30 / -0.52 / -0.08 / -0.52 / -0.46 / -0.35", "mean log10 Kd (nM)": "-0.37", "signal with controls": "0 of 18"}
{"CDR-L1": "KLGDMVHTESRNHNSIA", "CDR-L2": "DMRTRES", "CDR-L3": "QQYYRLPLS", "replicates, log10 nM": "-0.14 / -0.30 / -0.37 / -0.34 / -0.29 / -0.34", "mean log10 Kd (nM)": "-0.30", "signal with controls": "4 of 18 (2.26)"}